According to US20120135931A1 (priority 2009, published 2012):

Target: human plasma derived thrombin (human), P00734

DVAEPKMHKTAPPFDFEAIPEEYL (modifications not checked) [DV24]
Ki: 0.306 nM
